{"source": "paper PMC9652212", "about": "(Clinical Pharmacokinetics, 2022)", "type": "in vivo, human", "data": [{"smiles": "OCc1ncc2n1-c1ccc(Cl)cc1C(c1ccccc1F)=NC2", "note": "[1’-OH-MDZ, 1’-hydroxymidazolam]", "values": [{"measurement": "IIV of 1’-OH-MDZ volume of distribution", "setting": "interindividual variability", "value": 39.9, "unit": "%CV"}, {"measurement": "1’-OH-MDZ volume of distribution", "setting": "population estimate after metabolic conversion of MDZ", "value": 300, "unit": "L"}]}]}
